Tests used:
[1] = molecular target: BDNF/NT-3 growth factors receptor (Homo sapiens, UniProt Q16620); test: Inhibition of TRKB (unknown origin)
[2] = molecular target: Proto-oncogene tyrosine-protein kinase Src (Homo sapiens, UniProt P12931)

Amino acid sequences for entries named in this document (tags omitted). A change or cut given only in a name is not applied to a line headed by its entry.
UniProt Q16620, whole entry: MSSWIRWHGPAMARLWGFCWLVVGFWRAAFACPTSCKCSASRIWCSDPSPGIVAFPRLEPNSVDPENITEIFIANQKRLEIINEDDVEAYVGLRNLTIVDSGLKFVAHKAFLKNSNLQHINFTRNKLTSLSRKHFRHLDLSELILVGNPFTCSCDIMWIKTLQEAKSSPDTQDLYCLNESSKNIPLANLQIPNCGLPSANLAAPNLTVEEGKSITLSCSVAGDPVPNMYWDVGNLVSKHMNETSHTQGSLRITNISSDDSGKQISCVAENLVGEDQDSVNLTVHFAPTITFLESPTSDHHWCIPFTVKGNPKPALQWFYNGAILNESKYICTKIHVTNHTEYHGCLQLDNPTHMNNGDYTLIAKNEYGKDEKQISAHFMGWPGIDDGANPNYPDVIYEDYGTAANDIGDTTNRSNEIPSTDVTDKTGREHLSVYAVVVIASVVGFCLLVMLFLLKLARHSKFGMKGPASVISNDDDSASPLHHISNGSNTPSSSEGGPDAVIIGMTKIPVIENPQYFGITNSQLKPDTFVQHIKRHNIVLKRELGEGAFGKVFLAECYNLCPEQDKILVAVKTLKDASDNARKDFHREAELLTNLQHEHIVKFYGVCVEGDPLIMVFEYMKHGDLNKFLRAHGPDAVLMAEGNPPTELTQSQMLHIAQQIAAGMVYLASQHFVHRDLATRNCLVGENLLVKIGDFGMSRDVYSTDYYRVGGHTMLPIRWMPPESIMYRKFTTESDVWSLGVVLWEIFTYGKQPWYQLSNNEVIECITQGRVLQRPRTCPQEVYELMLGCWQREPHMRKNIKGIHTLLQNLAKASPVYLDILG
UniProt P12931: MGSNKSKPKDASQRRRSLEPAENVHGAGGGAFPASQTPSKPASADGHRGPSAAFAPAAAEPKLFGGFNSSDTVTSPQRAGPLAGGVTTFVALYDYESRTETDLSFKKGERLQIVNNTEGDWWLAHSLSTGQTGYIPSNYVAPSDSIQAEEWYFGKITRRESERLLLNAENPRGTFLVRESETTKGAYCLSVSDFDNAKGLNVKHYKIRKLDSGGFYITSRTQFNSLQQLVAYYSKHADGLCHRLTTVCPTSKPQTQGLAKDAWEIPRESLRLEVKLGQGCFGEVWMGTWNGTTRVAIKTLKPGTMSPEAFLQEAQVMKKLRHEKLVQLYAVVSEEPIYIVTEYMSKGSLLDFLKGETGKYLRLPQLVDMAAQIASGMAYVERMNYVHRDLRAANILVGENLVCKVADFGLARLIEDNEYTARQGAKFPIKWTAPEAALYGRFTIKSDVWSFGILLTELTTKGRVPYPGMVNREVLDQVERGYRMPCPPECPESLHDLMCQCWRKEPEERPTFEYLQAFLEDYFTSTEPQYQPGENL

IC50 [1]: 14 nM | IC50 [2]: 53 nM
SMILES: Cc1cn(-c2cc(C(=O)Nc3cccc(Nc4ccc5c(c4)NC(=O)/C5=C\c4ccc[nH]4)c3)cc(C(F)(F)F)c2)cn1

— ChEMBL document CHEMBL4346723, “Targeting tropomyosin receptor kinase for cancer therapy” (Eur J Med Chem, 2019)
